AlphaSeq binding of Ab-14 light chain variants to a spike HR2 peptide

Target: peptide PDVDLGDISGINAS, taken from heptad repeat 2 (HR2) of SARS-CoV-2 spike.

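Designed CDR sequences, proposed from the first random library and measured here. Group labels follow the data file (Ctrl: baseline library sampled from a position-specific scoring matrix, with some repeated check sequences; En: ensemble of fine-tuned language models; GP: Gaussian process model; HC: hill climbing; Gen: genetic algorithm; Gibbs: Gibbs sampling; a sequence that several methods proposed may carry one label only). The scFvs were displayed on barcoded MATa yeast, the peptide on MATalpha yeast. After mating in shaken culture at 30 °C for 16 h, diploids were selected and their barcode pairs sequenced. A regression on co-assayed BCL2-family reference pairs converts the normalised counts of each replicate to an apparent Kd. There are six technical replicates.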

Each scFv is VH, a (GGGGS)3 linker, VL, as in the parent Ab-14, and differs from it in the CDRs of the light chain only.
VH: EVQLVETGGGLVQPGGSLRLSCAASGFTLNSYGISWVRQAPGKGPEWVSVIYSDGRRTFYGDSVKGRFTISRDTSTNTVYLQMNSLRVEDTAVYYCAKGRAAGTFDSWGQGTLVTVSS
VL: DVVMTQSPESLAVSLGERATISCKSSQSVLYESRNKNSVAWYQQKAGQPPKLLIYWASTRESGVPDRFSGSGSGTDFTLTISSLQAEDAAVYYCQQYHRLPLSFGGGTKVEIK

Sequences are complete VL domains.
This list holds designs with more than six substitutions.
The read-out is the apparent dissociation constant on a log10 scale (nM): the lower, the stronger.
Where no diploid with the target was found in that replicate, the entry reads "ND": below detection, most likely a poor binder, though not proof of it.
Of ten entries with the parent sequence, four were seen in most replicates (averages 0.34 to 2.37), three in one and three in none, so single entries are noisy.
Three control strains display no target. For all light chain designs, 4% of the pairings with them gave a signal, with a median of 2.64 and one signal in twenty below 1.59, so weak values seen in few replicates may be background.
The range of this assay differs from that of the first round, and the authors advise against merging the two.
The authors averaged sequences with at least three values out of six and counted those with two or fewer as poor binders.

With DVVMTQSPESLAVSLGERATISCMMSQLTYMGSRARNAVAWYQQKAGQPPKLLIYQAETRVNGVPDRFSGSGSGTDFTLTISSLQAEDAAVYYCQQYHHLPLFFGGGTKVEIK [En_HC] the result was 0.88, 0.87, 0.83, 0.84, 0.80, 1.13. With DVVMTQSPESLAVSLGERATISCKLMGQGDHSIEHANSIAWYQQKAGQPPKLLIYNVDIVDMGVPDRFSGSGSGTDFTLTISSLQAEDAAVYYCQQYAHLPLSFGGGTKVEIK [En_Gibbs] the result was 1.32, 1.28, 0.83, 0.51, 1.03, 1.03. The variant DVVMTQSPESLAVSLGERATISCAVQQSELGGSRNKNSVAWYQQKAGQPPKLLIYNASTREDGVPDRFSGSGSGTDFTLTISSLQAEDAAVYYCQQYHRLPLSFGGGTKVEIK [GP_Gibbs] gave -0.02, 0.10, 0.00, -0.26, -0.05, 0.19. The variant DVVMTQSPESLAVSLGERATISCKLSQSTWYESGMKNSVAWYQQKAGQPPKLLIYNASLREQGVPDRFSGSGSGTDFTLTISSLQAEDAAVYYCQQYHRLPLSFGGGTKVEIK [GP_Gibbs] showed 0.24, 0.04, -0.14, 0.12, -0.13, 0.42. The variant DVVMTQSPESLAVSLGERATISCNLSIQNQPQNMSANNVAWYQQKAGQPPKLLIYQTESRCEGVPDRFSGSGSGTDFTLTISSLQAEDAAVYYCQQYAQLPLAFGGGTKVEIK [En_Gibbs] gave 1.87, 1.02, 1.19, 1.74, 1.72, 1.95. The variant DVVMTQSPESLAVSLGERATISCQFDLFENYQGMQGANIAWYQQKAGQPPKLLIYGETNRHTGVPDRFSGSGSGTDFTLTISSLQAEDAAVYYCQQYQKLPLSFGGGTKVEIK [En_Gibbs] showed 1.07, 2.02, 1.07, 1.41, 1.96, 1.66. The variant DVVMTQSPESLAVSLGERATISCMVSQLMLWGIHAKNSIAWYQQKAGQPPKLLIYEAQTRLNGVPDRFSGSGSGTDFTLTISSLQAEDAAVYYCQQYDRLPLFFGGGTKVEIK [En_Gen] showed ND, ND, 3.38, 2.08, 2.54, 3.47. With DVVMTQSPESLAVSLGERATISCKVSQSINVGSKNKNSLAWYQQKAGQPPKLLIYEMSTREFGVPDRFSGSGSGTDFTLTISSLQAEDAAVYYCQDYHRLPLSFGGGTKVEIK [En_HC] the result was -0.17, 0.58, 0.65, -0.19, 0.33, 0.71. The variant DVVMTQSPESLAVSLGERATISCMISDLPMYGSRNKNSVAWYQQKAGQPPKLLIYDLSTRGSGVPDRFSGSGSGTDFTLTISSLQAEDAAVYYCQQYHRLPLSFGGGTKVEIK [En_HC] showed 0.23, 0.11, -0.11, -0.01, -0.35, -0.20.

For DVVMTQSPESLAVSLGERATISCKIMQSLNYEQFNVSNVAWYQQKAGQPPKLLIYGQETREDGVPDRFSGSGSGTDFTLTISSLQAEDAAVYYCQSYHRLPLSFGGGTKVEIK [En_HC], the assay gave 0.95, 1.42, 0.85, 1.39, 1.29, 1.40. The variant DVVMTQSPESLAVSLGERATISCKLSWSDLYESRNCNNVAWYQQKAGQPPKLLIYNASQREVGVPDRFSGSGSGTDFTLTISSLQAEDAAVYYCQQYHRLPLSFGGGTKVEIK [GP_Gibbs] showed 0.63, 0.45, 0.37, 0.06, 0.40, 0.51. For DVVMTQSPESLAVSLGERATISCKVDQSVLQQSRNSNSVAWYQQKAGQPPKLLIYEASQREEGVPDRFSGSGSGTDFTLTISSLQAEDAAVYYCQQYHRLPLSFGGGTKVEIK [GP_Gibbs], the assay gave -0.09, -0.16, -0.36, -0.10, -0.24, -0.14. The variant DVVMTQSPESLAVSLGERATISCMLSEVLHMLGVKKNSIAWYQQKAGQPPKLLIYDLVLRANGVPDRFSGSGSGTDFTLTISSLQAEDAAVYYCQQYHRLPLMFGGGTKVEIK [En_Gen] showed ND, ND, ND, 1.24, ND, ND. For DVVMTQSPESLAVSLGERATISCTISQLYNMGQFAINSVAWYQQKAGQPPKLLIYQASIRNSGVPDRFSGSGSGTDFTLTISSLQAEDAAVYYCQQYDRLPLIFGGGTKVEIK [En_Gen], the assay gave ND, ND, ND, 2.75, 3.24, 3.20. The variant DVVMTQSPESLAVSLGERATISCKLSQVTEYEMHNRDNVAWYQQKAGQPPKLLIYDLTTRGAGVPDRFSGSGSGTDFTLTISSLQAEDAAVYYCQDYHRLPLSFGGGTKVEIK [En_HC] showed 0.46, 0.41, 0.27, 0.13, 0.25, 0.59. The variant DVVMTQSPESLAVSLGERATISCIVSQLMIWGMHAKNSIAWYQQKAGQPPKLLIYEAQTRLNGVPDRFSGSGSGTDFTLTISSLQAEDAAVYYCQQYERLPLFFGGGTKVEIK [En_Gen] showed 0.46, 0.19, 0.62, 1.16, 0.49, 1.18. The variant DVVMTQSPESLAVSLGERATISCKLQNFSQEDNKMWNNIAWYQQKAGQPPKLLIYETTMVHTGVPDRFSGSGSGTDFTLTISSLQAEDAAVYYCQQYMTLPLMFGGGTKVEIK [En_Gibbs] gave 1.32, 1.15, 0.74, 1.65, 1.90, 1.64. The variant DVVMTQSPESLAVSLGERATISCKCSQSWLTESDDKNSVAWYQQKAGQPPKLLIYWASERESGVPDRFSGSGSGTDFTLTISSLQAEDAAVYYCQLYHRLPLSFGGGTKVEIK [Ctrl] showed ND, ND, ND, ND, ND, ND.

The variant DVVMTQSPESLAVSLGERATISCKLVGVDDNDNNPMHAIAWYQQKAGQPPKLLIYDVSTLDNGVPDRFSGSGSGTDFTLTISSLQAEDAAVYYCQQYHRLPLDFGGGTKVEIK [En_Gibbs] showed 1.65, 1.49, 1.18, 1.65, 1.65, 1.85. The variant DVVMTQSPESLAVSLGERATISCKLTVAMASWRGQRHNIAWYQQKAGQPPKLLIYEATVTAPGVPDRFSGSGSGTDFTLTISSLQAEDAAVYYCQQYSRLPISFGGGTKVEIK [En_Gibbs] gave 0.83, 0.95, 1.51, 1.59, 0.56, 1.11. With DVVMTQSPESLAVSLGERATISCMITAGLRGVGRNKNSVAWYQQKAGQPPKLLIYNAQTREAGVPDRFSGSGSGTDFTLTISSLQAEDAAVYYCQHYHRLPLSFGGGTKVEIK [En_HC] the result was 2.90, 2.25, 2.27, 3.03, 2.05, 2.85.

The 2 strongest on average among those seen in every replicate, once more:

VL	group	replicates, log10 nM
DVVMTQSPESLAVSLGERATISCKVDQSVLQQSRNSNSVAWYQQKAGQPPKLLIYEASQREEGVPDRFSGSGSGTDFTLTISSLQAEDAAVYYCQQYHRLPLSFGGGTKVEIK	GP_Gibbs	-0.09, -0.16, -0.36, -0.10, -0.24, -0.14
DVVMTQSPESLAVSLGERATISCMISDLPMYGSRNKNSVAWYQQKAGQPPKLLIYDLSTRGSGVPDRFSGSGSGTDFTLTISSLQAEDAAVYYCQQYHRLPLSFGGGTKVEIK	En_HC	0.23, 0.11, -0.11, -0.01, -0.35, -0.20

Reference: Li et al. 2023, doi:10.1038/s41467-023-39022-2. File: FLAb, binding data.